Measurements reported in patent US9301951B2 (Ardelyx, Inc., priority 2010, dated 2016).

Sequences of proteins named here, by UniProt entry; tags and fusion partners are left off.
UniProt Q9JJ09, whole entry: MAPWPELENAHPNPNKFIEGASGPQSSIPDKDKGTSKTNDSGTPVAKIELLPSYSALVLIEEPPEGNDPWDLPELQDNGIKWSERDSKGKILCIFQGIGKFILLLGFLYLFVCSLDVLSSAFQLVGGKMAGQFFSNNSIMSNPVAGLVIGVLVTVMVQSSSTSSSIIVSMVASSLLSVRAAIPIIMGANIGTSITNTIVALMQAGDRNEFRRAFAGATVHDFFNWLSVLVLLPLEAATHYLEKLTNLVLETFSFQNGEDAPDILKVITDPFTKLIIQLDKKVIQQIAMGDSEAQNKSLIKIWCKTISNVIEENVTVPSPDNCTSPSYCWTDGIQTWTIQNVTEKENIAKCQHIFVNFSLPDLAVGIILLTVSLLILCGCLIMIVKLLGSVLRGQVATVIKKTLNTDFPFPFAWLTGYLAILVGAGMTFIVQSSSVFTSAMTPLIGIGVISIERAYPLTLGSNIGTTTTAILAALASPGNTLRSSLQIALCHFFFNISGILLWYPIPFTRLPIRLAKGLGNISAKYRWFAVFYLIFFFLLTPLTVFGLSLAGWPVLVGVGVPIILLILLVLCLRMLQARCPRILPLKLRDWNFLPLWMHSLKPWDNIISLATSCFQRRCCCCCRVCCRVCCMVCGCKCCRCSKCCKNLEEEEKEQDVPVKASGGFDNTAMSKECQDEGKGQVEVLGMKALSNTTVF

Biological target: rat NaP2b (SLC34A2) (Rattus norvegicus, UniProt Q9JJ09)
Assay: Inhibition of NaP2b-mediated Pi (33P) uptake in transfected HEK293 cells, rat NaP2b
Type: cell-based
Settings: HEK293 cells transfected with rat NaP2b, 100 uM phosphate, 0.1 nM to 30 uM

SMILES	pIC50 range for rat Nap2b
CN(CCN1CCOCC1)C(=O)c1cccc(C(=O)Nc2ccc(N3CCCCC3)cc2-c2cc(C(F)(F)CCc3ccccc3)ccn2)c1	4.5-5
O=C(NCc1cccc(C(F)(F)F)c1)c1ccnc(-c2cc(N3CCCCC3)ccc2NC(=O)c2cccc(CSc3cccc(C(=O)N4CCC(C(=O)O)CC4)c3)c2)c1	5.1-6.0
O=C(NCCN1CCOCC1)c1cccc(SCc2cccc(C(=O)Nc3ccc(N4CCCCC4)cc3-c3cc(C(=O)NCc4cccc(C(F)(F)F)c4)ccn3)c2)c1	5.1-6.0
